± gives the uncertainty stated by the source.
Test: xn = mol fraction of the nth substance listed

OCCOCCOCCOCCO + CN(C)C=O
viscosity [mPa·s], 100 kPa
Details	293.15 K	298.15 K	303.15 K	308.15 K	313.15 K	318.15 K
x1 = 0.0194	1.01 ± 0.03	0.955 ± 0.027	0.891 ± 0.026	0.843 ± 0.024	0.784 ± 0.023	0.746 ± 0.021
x1 = 0.0401	1.14 ± 0.03	1.06 ± 0.03	0.99 ± 0.028	0.929 ± 0.027	0.87 ± 0.025	0.826 ± 0.024
x1 = 0.0623	1.32 ± 0.04	1.24 ± 0.04	1.14 ± 0.03	0.999 ± 0.029	0.992 ± 0.028	0.869 ± 0.025
x1 = 0.086	1.54 ± 0.04	1.43 ± 0.04	1.31 ± 0.04	1.14 ± 0.03	1.14 ± 0.03	1.07 ± 0.03
x1 = 0.1115	1.87 ± 0.05	1.72 ± 0.05	1.54 ± 0.04	1.33 ± 0.04	1.33 ± 0.04	1.24 ± 0.04
x1 = 0.1389	2.22 ± 0.06	2.03 ± 0.06	1.83 ± 0.05	1.69 ± 0.05	1.54 ± 0.04	1.42 ± 0.04
x1 = 0.1685	2.66 ± 0.08	2.4 ± 0.07	2.16 ± 0.06	2 ± 0.06	1.8 ± 0.05	1.53 ± 0.04
x1 = 0.2006	3.19 ± 0.09	2.86 ± 0.08	2.55 ± 0.07	2.31 ± 0.07	2.11 ± 0.06	1.91 ± 0.06
x1 = 0.2354	3.87 ± 0.11	3.44 ± 0.1	3.03 ± 0.09	2.76 ± 0.08	2.47 ± 0.07	2.24 ± 0.06
x1 = 0.2734	4.75 ± 0.14	4.17 ± 0.12	3.66 ± 0.1	3.29 ± 0.09	2.92 ± 0.08	2.64 ± 0.08
x1 = 0.315	5.87 ± 0.17	5.11 ± 0.15	4.42 ± 0.13	3.95 ± 0.11	3.48 ± 0.1	3.12 ± 0.09
x1 = 0.3608	7.34 ± 0.21	6.31 ± 0.18	5.41 ± 0.16	4.8 ± 0.14	4.19 ± 0.12	3.73 ± 0.11
x1 = 0.4114	9.17 ± 0.26	7.82 ± 0.22	6.65 ± 0.19	5.85 ± 0.17	5.06 ± 0.15	4.45 ± 0.13
x1 = 0.4675	11.7 ± 0.3	9.84 ± 0.28	8.24 ± 0.24	7.19 ± 0.21	6.18 ± 0.18	5.38 ± 0.15
x1 = 0.5303	14.9 ± 0.4	12.5 ± 0.4	10.3 ± 0.3	8.9 ± 0.25	7.57 ± 0.22	6.52 ± 0.19
x1 = 0.6008	19.2 ± 0.6	16 ± 0.5	13 ± 0.4	11.1 ± 0.3	9.33 ± 0.27	7.96 ± 0.23
x1 = 0.6808	25.1 ± 0.7	20.5 ± 0.6	16.5 ± 0.5	13.9 ± 0.4	11.5 ± 0.3	9.79 ± 0.28
x1 = 0.772	32.9 ± 0.9	26.5 ± 0.8	21 ± 0.6	17.6 ± 0.5	14.1 ± 0.4	12.2 ± 0.4
x1 = 0.8773	43.9 ± 1.3	34.7 ± 1	27.2 ± 0.8	22.4 ± 0.6	17.6 ± 0.5	15.3 ± 0.4

OCCOCCOCCOCCO + CS(C)=O
viscosity [mPa·s], 101 kPa
Details	293.15 K	298.15 K	303.15 K	308.15 K	313.15 K	318.15 K
x1 = 0.0207	2.572 ± 0.082	2.337 ± 0.075	1.996 ± 0.064	1.81 ± 0.058	1.636 ± 0.052	1.481 ± 0.048
x1 = 0.0428	2.938 ± 0.094	2.711 ± 0.087	2.3 ± 0.074	2.018 ± 0.065	1.835 ± 0.059	1.655 ± 0.053
x1 = 0.0663	3.446 ± 0.11	3.224 ± 0.1	2.667 ± 0.085	2.315 ± 0.074	2.085 ± 0.067	1.872 ± 0.06
x1 = 0.0914	4.068 ± 0.13	3.709 ± 0.12	3.106 ± 0.099	2.675 ± 0.085	2.397 ± 0.077	2.142 ± 0.068
x1 = 0.1182	4.775 ± 0.15	4.327 ± 0.14	3.6 ± 0.12	3.077 ± 0.098	2.738 ± 0.087	2.437 ± 0.078
x1 = 0.1471	5.582 ± 0.18	5.123 ± 0.16	4.195 ± 0.13	3.583 ± 0.11	3.129 ± 0.1	2.768 ± 0.088
x1 = 0.1781	6.637 ± 0.21	6.005 ± 0.19	4.868 ± 0.15	4.095 ± 0.13	3.601 ± 0.11	3.165 ± 0.1
x1 = 0.2115	7.853 ± 0.25	7.066 ± 0.22	5.668 ± 0.18	4.726 ± 0.15	4.135 ± 0.13	3.609 ± 0.11
x1 = 0.2476	9.248 ± 0.29	8.164 ± 0.26	6.588 ± 0.21	5.447 ± 0.17	4.738 ± 0.15	4.112 ± 0.13
x1 = 0.2869	10.82 ± 0.34	9.589 ± 0.3	7.658 ± 0.24	6.291 ± 0.2	5.445 ± 0.17	4.692 ± 0.15
x1 = 0.3296	13 ± 0.41	11.29 ± 0.35	8.926 ± 0.28	7.264 ± 0.23	6.237 ± 0.2	5.357 ± 0.17
x1 = 0.3763	15.34 ± 0.48	13.23 ± 0.41	10.39 ± 0.33	8.399 ± 0.26	7.166 ± 0.23	6.116 ± 0.19
x1 = 0.4276	18.19 ± 0.57	15.62 ± 0.49	12.14 ± 0.38	9.711 ± 0.3	8.224 ± 0.26	6.953 ± 0.22
x1 = 0.4842	21.37 ± 0.67	18.18 ± 0.57	14.05 ± 0.44	11.17 ± 0.35	9.404 ± 0.29	7.915 ± 0.25
x1 = 0.5469	25.23 ± 0.79	21.25 ± 0.66	16.33 ± 0.51	12.88 ± 0.4	10.74 ± 0.34	9.016 ± 0.28
x1 = 0.6167	29.66 ± 0.92	24.85 ± 0.77	18.88 ± 0.59	14.79 ± 0.46	12.28 ± 0.38	10.22 ± 0.32
x1 = 0.6951	34.9 ± 1.1	28.92 ± 0.9	21.8 ± 0.68	16.99 ± 0.53	14.01 ± 0.43	11.58 ± 0.36
x1 = 0.7836	41.07 ± 1.3	33.7 ± 1	25.23 ± 0.78	19.52 ± 0.6	16.03 ± 0.49	13.13 ± 0.41
x1 = 0.8843	48.09 ± 1.5	38.92 ± 1.2	29.17 ± 0.9	22.37 ± 0.69	18.21 ± 0.56	14.84 ± 0.46

— the CheMixHub viscosity set
